The values below come from US20100152129A1, “Novel synergistic combination of gemcitabine with P276-00 or P1446A in treatment of cancer” (priority 2008, published 2010).

In this data set the test system is Panc1 cells. Particulars: human, 6 h.

The structures appear in SMILES notation.

Consider `CN1CC[C@H](c2c(O)cc(O)c3c(=O)cc(-c4ccccc4Cl)oc23)[C@H](O)C1` [Flavopiridol], for which the “% Cytotoxicity in Panc1 cells” value came out at 14.25%.
